Data taken from patent publication US6632456B1, “Compositions for inhalation” (AstraZeneca AB, priority 1994, dated 2003).

Tested on: CaCo-2 epithelial cell monolayer
Test: CaCo-2 epithelial cell monolayer transport assay
Assay type: in vitro ADME
Details: CaCo-2, 16 mM sodium caprate, compared to absence of any enhancer
Experimental: A standard in vitro assay utilizing an epithelial cell line, CaCo-2 (available through the American Type Culture Collection (ATCC), Rockville, Md., USA), has been developed to assess the ability of various enhancer compounds to promote transport of markers across an epithelial cell monolayer, as a model for the epithelial cell layer which functions in the lung to separate the alveolus from the pulmonary blood supply.
In this assay, the enhancer and polypeptide or other marker are dissolved in aqueous solution at various proportions and/or concentrations, and applied to the apical side of the cell monolayer. After 60 min incubation at 37° C. and 95% RH (relative humidity), the amount of the marker on the basolateral side of the cells is determined, e.g., by use of a radioactively labelled marker.

Substance | amount of insulin which passed across the monolayer | amount of vasopressin absorbed across the monolayer, increase
insulin | doubled | –
vasopressin | – | 10-15 times
